scFv variants of Ab-14 (light chain) against a SARS-CoV-2 spike peptide

Source: Li et al. 2023 (doi:10.1038/s41467-023-39022-2), MIT Lincoln Laboratory and A-Alpha Bio; data file from the FLAb repository.

Target peptide (SARS-CoV-2 spike, HR2 region): PDVDLGDISGINAS

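Phage display of a naive human antibody library on the peptide gave the parent. This is the validation round: designs drawn from the data on random variants, tested in the same kind of assay. Their group label is 14L_GP_Gibbs (GP: Gaussian process model; Gibbs: Gibbs sampling; a sequence that several methods proposed may carry one label only). In AlphaSeq, yeast of one mating type display the scFv and yeast of the other type display the target. Mating (16 h, 30 °C) was followed by selection of diploids and sequencing of their barcodes. The ratio of observed to expected reads was calibrated, replicate by replicate, on BCL2-family standards whose Kd was known from biolayer interferometry. Mating was done six times.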

Parent: Ab-14, a human scFv built as VH, a (GGGGS)3 linker, VL. Only the CDRs of the light chain vary.
VH: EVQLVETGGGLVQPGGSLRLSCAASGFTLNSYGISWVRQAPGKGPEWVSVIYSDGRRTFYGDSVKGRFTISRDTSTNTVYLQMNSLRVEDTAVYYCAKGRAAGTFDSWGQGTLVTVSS
VL: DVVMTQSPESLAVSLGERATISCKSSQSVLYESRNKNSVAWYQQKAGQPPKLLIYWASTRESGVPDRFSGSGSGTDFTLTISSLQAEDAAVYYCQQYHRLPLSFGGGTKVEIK

The parent's light chain CDRs are KSSQSVLYESRNKNSVA, WASTRES, QQYHRLPLS; each variant's own CDRs replace them letter for letter. Values are log10 of the apparent Kd in nM; lower means stronger binding. An entry "nd" has no value in the source: the pair was not observed among the diploids in that replicate. This suggests poor binding but is not conclusive. The authors' rule: three or more of the six replicates give a measured affinity, fewer mean a poor binder.

| # | CDR-L1 | CDR-L2 | CDR-L3 | log10 Kd (nM) by replicate | control signals |
|---|---|---|---|---|---|
| 1 | KSSQSVEMESRNSNSVA | DASQRES | QQYHRLPLS | 0.57 0.55 0.27 0.36 0.28 0.56 | 1/18 (2.53) |
| 2 | KLSKMVMEGSRNKNSVA | EASQREE | QQYHRLPLS | -0.31 -0.30 -0.40 -0.50 -0.46 -0.22 | 1/18 (2.77) |
| 3 | KLQQQSLYWSRNKNSVA | EASTRES | QQYHRLPLS | -0.15 0.02 0.18 0.24 0.05 -0.19 | 0/18 |
| 4 | KVQASQEYWSRNKNSVA | QASTRET | QQYHRLPLS | -0.20 0.13 -0.11 -0.34 -0.14 0.09 | 0/18 |
| 5 | KVPGSHDYESRNKNSVA | HASTRCS | QDYHRLPLS | 2.21 0.82 0.91 0.55 1.19 1.46 | 0/18 |
| 6 | KFSQSVMMGDRNKNSVA | KASTRLS | QQYHRLPLS | 0.59 0.67 0.77 0.74 0.74 0.74 | 1/18 (2.70) |
| 7 | KLSQSNLYEDRNLNNVA | NASQRES | QVYHRLPLM | 0.61 0.12 -0.05 0.20 -0.06 0.29 | 0/18 |
| 8 | KHSISVWGGDRNKNSVA | DASTRES | QQYHRLPLS | 0.36 -0.14 -0.19 -0.12 -0.08 0.28 | 1/18 (2.35) |
| 9 | KLSGSMLYEQRMLNSVA | QASQRMS | QQYHRLPLS | -0.03 -0.08 -0.22 -0.25 0.11 -0.06 | 2/18 (2.65) |
| 10 | KLQQSELYEERNSNSVA | SASLREL | QQYHRLPLS | 0.74 0.62 0.43 0.30 0.40 0.68 | 1/18 (2.06) |
| 11 | KLSQSVDYESRQKNSVA | NAQTRLS | QQYHRLPLS | 0.23 0.15 -0.02 0.03 0.03 -0.05 | 0/18 |
| 12 | KLQQSVLQLWRNDNSVA | QASHRES | QQYHRLPLS | -0.14 -0.15 -0.28 -0.58 0.12 0.01 | 0/18 |
| 13 | KWSFLQGGESRNKNSVA | DASTRES | QQYHRLPLS | -0.08 -0.17 -0.31 -0.42 -0.40 -0.19 | 0/18 |
| 14 | KLSQSVLGGSRNKNSVA | HANQRES | QQYHRLPLY | 0.87 0.63 0.63 0.43 0.87 0.98 | 2/18 (2.60) |
| 15 | KLSQSGLYGMRNKMSVA | QASQRLS | QQYHRLPLS | 0.62 0.42 0.63 0.88 1.02 1.16 | 0/18 |
| 16 | KVSQSAPYEDRNLNNVA | HASTRES | QQYHRLPLS | -0.19 -0.27 -0.19 -0.73 -0.26 -0.47 | 1/18 (2.27) |
| 17 | KMQASNGYESRNKNSVA | QASTRES | QQYHRLPLS | -0.22 0.09 -0.14 -0.27 -0.12 -0.13 | 0/18 |
| 18 | KLSMSVWYEARMCNSVA | EASTRES | QQYHRLPLS | 0.08 -0.01 0.57 -0.08 0.35 0.18 | 0/18 |
| 19 | KVSQSYLGESRNMNSVA | NASTREQ | QQYHRLPLS | 0.17 0.18 0.06 -0.20 -0.09 0.13 | 0/18 |
| 20 | KLSQSFLMESMNKNSVA | EASQRIW | QQYHRLPLS | 0.21 0.07 0.62 -0.04 0.27 0.23 | 0/18 |
| 21 | KVQQSVLYGDRNKNSVA | HASTRSS | QDYHRLPLS | 0.93 0.10 -0.57 0.39 0.75 -0.30 | 0/18 |
| 22 | KMSQSVLQEGRNDNSVA | SASTRCS | QQYHRLPLS | nd -0.15 0.76 0.06 1.03 nd | 0/18 |
| 23 | KLSCSMEYESRNKNSVA | NASTREE | GQYHRLPLT | 0.32 0.36 0.06 0.45 0.26 0.46 | 1/18 (2.53) |
| 24 | KVQEQKLYWSRNKNSVA | EASTRES | QQYHRLPLS | 0.40 0.33 0.45 0.09 0.09 0.31 | 0/18 |
| 25 | KLAQSDLYESRNFNNVA | AASTRES | QQYHRLPLS | -0.31 -0.79 -0.19 -0.62 -0.24 -0.29 | 0/18 |
| 26 | KFSQSEDYESRNKNSVA | NAQTRMS | QQYHRLPLS | -0.16 -0.36 -0.50 -0.32 -0.37 -0.14 | 1/18 (2.34) |
| 27 | KLSFGNLYESRNKNSVA | EASTRCQ | QQYHRLPLS | -0.30 -0.04 -0.16 -0.20 -0.12 0.05 | 3/18 (2.33) |
| 28 | KLSQSVLYEGRNKNSVA | NASTRMS | QQYHRLPLS | 0.57 0.57 0.80 1.01 0.67 0.82 | 0/18 |
| 29 | KCEQWVDYESRNKNSVA | QASTREQ | QQYHRLPLS | 0.01 -0.20 -0.32 -0.39 -0.32 -0.22 | 0/18 |
| 30 | KLQQSWGYQSRNKNSVA | NASTRED | QQYHRLPLS | 0.69 0.77 0.59 0.73 1.04 0.69 | 0/18 |
| 31 | KVSNQVDGEDRNKNAVA | DASTRES | QQYHRLPLS | 0.07 -0.03 -0.09 -0.25 -0.09 -0.01 | 2/18 (2.58) |
| 32 | KLQQMVEYESRNPNSVA | SASTREL | QQYHRLPLS | -0.13 0.25 -0.25 -0.04 -0.41 -0.11 | 1/18 (3.01) |
| 33 | KLQQSMLYESRWHNSVA | DASVRCD | QQYHRLPLS | 0.30 0.05 0.20 -0.04 0.09 0.41 | 2/18 (2.58) |
| 34 | KLMQSMPYESRNANNVA | YASTRES | QQYHRLPLS | -0.08 -0.07 -0.11 -0.26 -0.21 0.11 | 1/18 (2.73) |
| 35 | KWDQEVDGQSRNKNSVA | DASTREW | QQYHRLPLS | -0.14 -0.01 -0.10 -0.27 -0.27 0.06 | 1/18 (3.62) |
| 36 | KLSQSVWYLERNKNNVA | NASYRES | QQYHRLPLS | 0.21 -0.02 0.01 -0.15 -0.06 0.14 | 1/18 (2.31) |
| 37 | KLRWSNLYESRNKNSVA | NASQRCS | QQYHRLPLS | 0.28 0.27 0.00 0.10 0.20 0.12 | 1/18 (3.37) |
| 38 | KFSQSWLYESRNKNSVA | NASTRES | QQYRRLPLS | 0.43 0.28 0.52 0.40 0.45 0.54 | 1/18 (3.21) |
| 39 | KLPQEVWYQSRMKNSVA | DASQRES | QQYHRLPLS | -0.04 0.14 0.04 0.12 0.13 0.32 | 0/18 |
| 40 | KLEGSHLYESRNANSVA | NASTRMS | QQYHRLPLS | 0.71 0.69 0.62 0.58 0.76 0.81 | 1/18 (2.53) |

Extract of 6 entries:

CDR-L1,CDR-L2,CDR-L3,log10 Kd (nM) by replicate,control signals
KLAQSDLYESRNFNNVA,AASTRES,QQYHRLPLS,-0.31 -0.79 -0.19 -0.62 -0.24 -0.29,0/18
KMSQSVLQEGRNDNSVA,SASTRCS,QQYHRLPLS,nd -0.15 0.76 0.06 1.03 nd,0/18
KLSFGNLYESRNKNSVA,EASTRCQ,QQYHRLPLS,-0.30 -0.04 -0.16 -0.20 -0.12 0.05,3/18 (2.33)
KFSQSEDYESRNKNSVA,NAQTRMS,QQYHRLPLS,-0.16 -0.36 -0.50 -0.32 -0.37 -0.14,1/18 (2.34)
KLSQSNLYEDRNLNNVA,NASQRES,QVYHRLPLM,0.61 0.12 -0.05 0.20 -0.06 0.29,0/18
KVSNQVDGEDRNKNAVA,DASTRES,QQYHRLPLS,0.07 -0.03 -0.09 -0.25 -0.09 -0.01,2/18 (2.58)

A sequence measured in both rounds can read differently, since the two assays cover different ranges. Background: pairings of all light chain designs with three empty control strains gave a value in 4% of cases (median 2.64, 5th percentile 1.59). Values in that range, when seen in few replicates, are hard to tell from nonspecific mating. For each scFv, signals with the empty controls are counted beside the result, with their mean in brackets.